Results reported in PMC3880646 (Journal of medicinal chemistry, 2013).

Columns and labels:
[1] = tested on: SJSA-1 osteosarcoma tumor xenograft; assay type: in vivo
[2] = tested on: RS4;11 acute lymphoblastic leukemia xenograft; assay type: in vivo

CC(C)(C)C[C@@H]1N[C@@H](C(=O)N[C@H]2C[C@@](C)(O)C2)[C@H](c2cccc(Cl)c2F)[C@]12C(=O)Nc1cc(Cl)ccc12 [Compound 9]
durability of tumor regression ([1]; 100 mg/kg, 60 days after the last dose): all the mice remained tumor free
mice with undetectable tumor ([1]; 100 mg/kg, after 10 days of dosing): 8 out of 8
tolerability (animal weight, signs of toxicity) ([1]; 10, 30 and 100 mg/kg oral daily, entire experiment): minimal weight loss and no sign of toxicity
durability of tumor regression ([2]; 200 mg/kg, 26 days after the last dose): still remained tumor free
complete tumor regression ([2]; 200 mg/kg, after 7 days of dosing): Complete tumor regression was observed in all the animals
tolerability (weight loss, signs of toxicity) ([2]; 100 and 200 mg/kg oral daily, entire experiment): no significant weight loss or other signs of toxicity
